In PubChem BioAssay AID1224863 (Southern Research Institute, 2016):
Only a part is listed here, and it is no random draw. Activity calls are given as the source filed them.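 Rule for the calls: active = highest signal at least 8 times that of the reference protease inhibitor control at some dose; inactive = the rest.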

The chains behind the UniProt entries cited, without tags or fusion partners. A line that says so, or that is headed by a name, gives the form on record, which may keep a tag or linker.
UniProt P13569, with tags, fused parts or gaps F508del: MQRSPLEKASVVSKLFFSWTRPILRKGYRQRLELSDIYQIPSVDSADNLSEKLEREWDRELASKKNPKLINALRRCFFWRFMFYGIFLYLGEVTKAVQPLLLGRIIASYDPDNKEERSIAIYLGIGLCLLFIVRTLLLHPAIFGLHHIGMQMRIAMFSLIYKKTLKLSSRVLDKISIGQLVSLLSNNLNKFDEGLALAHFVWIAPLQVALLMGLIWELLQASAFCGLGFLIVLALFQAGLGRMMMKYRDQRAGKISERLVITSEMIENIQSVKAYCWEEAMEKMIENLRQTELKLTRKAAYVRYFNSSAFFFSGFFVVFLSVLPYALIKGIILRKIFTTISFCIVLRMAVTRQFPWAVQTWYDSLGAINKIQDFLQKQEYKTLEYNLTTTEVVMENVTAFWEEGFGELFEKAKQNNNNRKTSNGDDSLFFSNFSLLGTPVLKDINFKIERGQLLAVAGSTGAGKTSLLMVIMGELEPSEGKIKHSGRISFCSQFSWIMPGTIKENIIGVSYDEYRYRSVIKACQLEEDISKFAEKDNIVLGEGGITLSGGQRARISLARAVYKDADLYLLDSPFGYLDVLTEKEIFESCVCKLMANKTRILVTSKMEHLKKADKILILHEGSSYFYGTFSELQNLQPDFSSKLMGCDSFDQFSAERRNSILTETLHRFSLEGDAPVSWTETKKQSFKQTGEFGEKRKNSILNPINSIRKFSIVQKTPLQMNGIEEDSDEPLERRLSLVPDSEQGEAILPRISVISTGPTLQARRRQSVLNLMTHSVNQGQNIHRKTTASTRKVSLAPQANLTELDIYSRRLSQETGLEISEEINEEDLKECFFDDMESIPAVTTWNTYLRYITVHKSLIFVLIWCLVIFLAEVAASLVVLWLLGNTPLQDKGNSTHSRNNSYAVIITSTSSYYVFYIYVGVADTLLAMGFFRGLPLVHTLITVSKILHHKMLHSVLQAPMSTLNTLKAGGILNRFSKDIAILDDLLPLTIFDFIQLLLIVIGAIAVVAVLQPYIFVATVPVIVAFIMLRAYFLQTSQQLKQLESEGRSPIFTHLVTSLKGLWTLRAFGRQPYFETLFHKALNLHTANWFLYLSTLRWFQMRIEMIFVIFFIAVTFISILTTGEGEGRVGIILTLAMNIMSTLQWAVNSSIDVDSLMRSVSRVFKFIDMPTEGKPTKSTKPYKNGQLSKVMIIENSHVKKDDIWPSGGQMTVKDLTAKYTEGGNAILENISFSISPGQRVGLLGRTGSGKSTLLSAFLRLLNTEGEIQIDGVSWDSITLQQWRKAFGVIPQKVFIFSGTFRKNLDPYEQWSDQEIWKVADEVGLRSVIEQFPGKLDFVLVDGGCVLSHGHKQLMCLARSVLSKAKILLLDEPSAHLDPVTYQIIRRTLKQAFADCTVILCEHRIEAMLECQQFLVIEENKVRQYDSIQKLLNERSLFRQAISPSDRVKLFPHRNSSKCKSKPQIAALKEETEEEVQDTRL

Molecular target: Cystic fibrosis transmembrane conductance regulator (Homo sapiens) (UniProt P13569)
Test: total CFTR protein upregulators, primary screen, cell-based, HeLa F508del-CFTR, immunofluorescence, viability (AID 1224863);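 note: total CFTR protein by anti-CFTR immunofluorescence in fixed cells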
Conditions: 24 h, dose 25, library dosed in µM, hits give high values

| Structure (SMILES) | max fold increase |
| --- | --- |
| CN(CCCl)CCCl | inactive: 3.2 |
